Data reported in patent publication US20220372549A1, “Thermally Responsive Conjugates” (MIP Diagnostic Limited, priority 2019, published 2022).

Settings: formation of turbidity upon heating a polymer solution dispersed in water

## zidovudine-poly-N-isopropylmethacrylamide
  lower critical solution temperature: approximately 52 °C
